Experimental data published in ChEMBL document CHEMBL3621126, “Difluoromethyl ketones: Potent inhibitors of wild type and carbamate-insensitive G119S mutant Anopheles gambiae acetylcholinesterase” (Bioorg Med Chem Lett, 2015).

Sequences of proteins named here, by UniProt entry; tags and fusion partners are left off. A change or cut given only in a name is not applied to a line headed by its entry.
UniProt Q869C3: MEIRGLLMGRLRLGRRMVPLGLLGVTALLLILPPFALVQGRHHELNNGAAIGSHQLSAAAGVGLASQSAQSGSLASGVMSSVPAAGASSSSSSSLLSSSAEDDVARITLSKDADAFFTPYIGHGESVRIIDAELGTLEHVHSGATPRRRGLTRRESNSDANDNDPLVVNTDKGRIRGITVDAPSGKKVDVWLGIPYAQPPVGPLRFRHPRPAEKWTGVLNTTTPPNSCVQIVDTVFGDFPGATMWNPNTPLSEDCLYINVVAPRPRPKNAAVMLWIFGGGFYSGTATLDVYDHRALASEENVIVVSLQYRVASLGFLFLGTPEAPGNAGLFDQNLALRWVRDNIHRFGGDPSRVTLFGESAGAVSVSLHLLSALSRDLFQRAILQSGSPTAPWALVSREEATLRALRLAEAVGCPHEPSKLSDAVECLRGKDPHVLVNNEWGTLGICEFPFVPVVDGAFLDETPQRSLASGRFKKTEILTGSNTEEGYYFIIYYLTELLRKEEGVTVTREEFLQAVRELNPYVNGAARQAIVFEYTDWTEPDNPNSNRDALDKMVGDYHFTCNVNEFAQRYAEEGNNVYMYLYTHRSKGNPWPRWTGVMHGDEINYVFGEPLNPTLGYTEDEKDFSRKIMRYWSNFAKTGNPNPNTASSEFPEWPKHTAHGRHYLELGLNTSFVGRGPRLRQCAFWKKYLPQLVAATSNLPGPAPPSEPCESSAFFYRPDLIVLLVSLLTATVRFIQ

Key:
Acetylcholinesterase [1] = target: T1, Acetylcholinesterase (Anopheles gambiae, UniProt Q869C3); assay: Inhibition of recombinant Anopheles gambiae wild type AChE after 10 mins by Ellman assay
Acetylcholinesterase [2] = target: T1, Acetylcholinesterase; assay: Inhibition of recombinant Anopheles gambiae wild type AChE after 60 mins by Ellman assay

CC(C)(C)c1cccc(C(=O)CF)c1
IC50 (Acetylcholinesterase [1]): 0.726 µM
IC50 (Acetylcholinesterase [2]): 0.953 µM
